Data reported in PubChem BioAssay AID588436 (Broad Institute, 2011).
Only a part is listed here, and it is no random draw. Calls of active or inactive are those of the source. Rule as the data show it: active = activation mostly above about 9.7% (no sharp cut-off); inconclusive = no clear call, values can overlap the other calls; inactive = mostly below about 3.7%.

Experiment: induces V. cholerae light production without autoinducers, primary screen, BH1578 luxS cqsA deficient, single point (AID 588436)
Settings: V. cholerae BH1578 lux reporter, luminescence, 6 h, at 18.7 µM; hits give high values

Row | SMILES | activation
1 | Cc1ccc(C)c(NP(C)(=O)Oc2ccccc2)c1 (centres undefined) | inactive: -1.4%
2 | CP(=O)(Nc1cccc(Br)c1)Oc1ccccc1 (centres undefined) | inactive
3 | Cc1cc(C)cc(OP(C)(=O)Nc2ccccn2)c1 (centres undefined) | inactive: 1.54%
4 | CCOC(=O)c1ccc(NP(C)(=O)Oc2cc(C)cc(C)c2)cc1 (centres undefined) | inactive: -0.392%
5 | Cc1cc(C)cc(OP(C)(=O)Nc2ccc(C)cc2C)c1 (centres undefined) | inactive
6 | COc1ccccc1OP(C)(=O)Nc1cccc(Br)c1 (centres undefined) | inactive: -0.597%
7 | CC1=NCCc2c1[nH]c1ccccc21.O=[N+]([O-])c1cc([N+](=O)[O-])c(O)c([N+](=O)[O-])c1 | inactive: -0.252%
8 | O=C(O)c1cccc(Nc2c([N+](=O)[O-])cc([N+](=O)[O-])cc2[N+](=O)[O-])c1 | inactive
9 | CP(=O)(Nc1ccc(SC(F)(F)F)cc1)Oc1ccccc1 (centres undefined) | inactive: -0.601%
10 | CCCOc1ccc(NP(C)(=O)Oc2ccc(Cl)cc2)cc1 (centres undefined) | inactive: -0.855%
11 | CN1CCCCC1COC(=O)C1(O)c2ccccc2CCc2ccccc21 (centres undefined) | inactive: -0.226%
12 | COc1ccccc1OP(C)(=O)Nc1c(C)cccc1C (centres undefined) | inactive
13 | CCOC(=O)C(CC)C1=NC(C)(C)Cc2ccccc21.O=[N+]([O-])c1cc([N+](=O)[O-])c(O)c([N+](=O)[O-])c1 (centres undefined) | inactive
14 | O=[N+]([O-])c1cc([N+](=O)[O-])c(Nc2nnnn2CCO)c([N+](=O)[O-])c1 | inactive: -0.466%
15 | CC1=C2N=C(C=C3N=C(C(C)=C4[N-][C@@](C)([C@@H]5N=C1[C@](C)(CCC(=O)NC[C@@H](C)OP(=O)([O-])O[C@H]1[C@@H](O)[C@@H](n6cnc7cc(C)c(C)cc76)O[C@@H]1CO)[C@H]5CC(N)=O)[C@@](C)(CC(N)=O)[C@@H]4CCC(N)=O)[C@@](C)(CC(N)=O)[C@@H]3CCC(N)=O)C(C)(C)[C@@H]2CCC(N)=O.[C-]#N.[Co+3] | inactive: -0.473%
16 | Cc1nc2ccc3ccccc3c2s1.O=[N+]([O-])c1cc([N+](=O)[O-])c(O)c([N+](=O)[O-])c1 | inactive: -5.88%
17 | O=[N+]([O-])c1cc([N+](=O)[O-])c(-c2cnn(-c3ccccc3)c2)c([N+](=O)[O-])c1 | inactive: -0.747%
18 | O=[N+]([O-])c1cc([N+](=O)[O-])c(-n2nnc3ccccc32)c([N+](=O)[O-])c1 | inactive
19 | CP(=O)(Nc1ccccn1)Oc1ccc(Cl)cc1 (centres undefined) | inactive: -1.51%
20 | O=[N+]([O-])c1cc([N+](=O)[O-])c(O)c([N+](=O)[O-])c1.c1ccc(Oc2ccncc2)cc1 | inactive: -0.396%

Row | SMILES | activation
21 | CCOC(=O)c1ccc(NP(C)(=O)Oc2ccc(OC)cc2)cc1 (centres undefined) | inactive: -0.468%
22 | CCOP(C)(=S)SCC(=O)NC(C)C(=O)O (centres undefined) | inactive: -0.641%
23 | Cc1cc(C)cc(OP(C)(=O)Nc2ccc(SC(F)(F)F)cc2)c1 (centres undefined) | inactive: 0.0425%
24 | CCc1ccc(OP(C)(=O)N2CCN(c3ccc([N+](=O)[O-])cc3)CC2)cc1 (centres undefined) | inactive
25 | CP(=O)(NC(=O)Nc1ccccc1)Oc1ccccc1 (centres undefined) | inactive: 1.51%
26 | CP(=O)(Oc1ccccc1)OC(c1ccccc1)C(F)(F)F (centres undefined) | inactive: -0.68%
27 | CP(=O)(Nc1ccc(SC(F)(F)F)cc1)Oc1ccc(Cl)cc1 (centres undefined) | inactive
28 | Cc1cccc(C)c1OP(C)(=O)Nc1ccc(SC(F)(F)F)cc1 (centres undefined) | inactive: -1.23%
29 | Cc1ccc(Nc2c([N+](=O)[O-])cc([N+](=O)[O-])cc2[N+](=O)[O-])cc1 | inactive: -7.58%
30 | CP(=O)(Nc1ccccc1Br)Oc1ccccc1 (centres undefined) | inactive: -3.45%
31 | COc1ccccc1OP(C)(=O)Nc1ccccc1 (centres undefined) | inactive: -0.57%
32 | CP(=S)(Nn1cnnc1)Oc1ccccc1 (centres undefined) | inactive: -1.16%
33 | Cc1cc(C)cc(OP(C)(N)=O)c1 (centres undefined) | inactive: -0.115%
34 | COc1ccc(OP(C)(=O)Nc2cccc(F)c2)cc1 (centres undefined) | inactive
35 | COc1ccccc1OP(C)(=O)Nc1cc(Cl)ccc1C (centres undefined) | inactive: -0.106%
36 | Cc1ccc(NP(C)(=O)Oc2ccccc2)c(C)c1 (centres undefined) | inactive
37 | COc1ccccc1OP(C)(=O)Nc1ccc(C)cc1 (centres undefined) | inactive: -2.41%
38 | CCOC(=O)c1ccc(NP(C)(=O)Oc2ccccc2)cc1 (centres undefined) | inactive: -0.623%
39 | O=[N+]([O-])c1ccc2c(c1)C=Nc1ccccc1O2 | inactive
40 | Cc1cccc(C)c1OP(C)(N)=O (centres undefined) | inactive

Row | SMILES | activation
41 | CC(C)(C)c1ccc(OP(C)(=O)Nc2ccc(SC(F)(F)F)cc2)cc1 (centres undefined) | inactive: -0.347%
42 | O=[N+]([O-])c1cc([N+](=O)[O-])c(Nc2cccnc2)c([N+](=O)[O-])c1 | inactive
43 | CCN(CC)CCCOC(=O)C(O)(c1ccccc1)c1ccccc1 | inactive: 0.176%
44 | COc1ccccc1OP(C)(=O)Nc1ccc(C)cc1C (centres undefined) | inactive: -1.61%
45 | CP(=O)(Nc1ccccn1)Oc1ccccc1 (centres undefined) | inactive
46 | CCc1ccc(OP(C)(=O)O)cc1 | inactive: 2.44%
47 | O=[N+]([O-])c1cc([N+](=O)[O-])c(Nc2ccccn2)c([N+](=O)[O-])c1 | inactive: -0.292%
48 | Cc1c(NP(C)(=O)Oc2ccc(C(C)C)cc2)c(=O)n(-c2ccccc2)n1C (centres undefined) | inactive: -0.351%
49 | COc1ccc(OP(C)(=O)Nc2ccccn2)cc1 (centres undefined) | inactive
50 | CN(C)CCOC(=O)C(O)(c1ccccc1)C1CCCC1 (centres undefined) | inactive: -0.582%
51 | COc1ccccc1OP(C)(=O)Nc1ccc(Br)cc1 (centres undefined) | inactive: -0.568%
52 | CP(=O)(OCCOc1ccccc1)OCCOc1ccccc1 | inactive: -0.399%
53 | CCCCCCCCCCCCCCCC1C[N+](C)(C)CCOP(C)(=O)O1 (centres undefined) | inactive: -1.89%
54 | CP(=O)(Nc1ccc(Cl)cc1Cl)Oc1ccccc1 (centres undefined) | inactive: 0.285%
55 | COc1ccccc1OP(C)(=O)Nc1ccc(C)c(C)c1 (centres undefined) | inactive: -0.752%
56 | COc1ccc(OP(C)(=O)Nc2ccccc2Br)cc1 (centres undefined) | inactive
57 | Cc1cc(C)cc(OP(C)(=O)Nc2cccc(C(F)(F)F)c2)c1 (centres undefined) | inactive
58 | O=C1C(O)=C([N+](=O)[O-])C(=O)C(O)=C1[N+](=O)[O-] | inactive
59 | CCOC(=O)c1ccc(NP(C)(=O)Oc2ccc(Cl)cc2)cc1 (centres undefined) | inactive: -0.319%
